From ChEMBL document CHEMBL4014315 (J Med Chem, 2017)

Test: Therapeutic index, ratio of GI50 for ABCG2 over-expressing MDCK2 cells to IC50 for recombinant human GFP-fused ABCG2 expressed in MDCK2 cells
Assay type: cell-based

In the case of `O=[N+]([O-])c1ccc(Nc2nc(-c3cccnc3)nc3ccccc23)cc1`, the TI is reported as 1140.
